Source: PubChem
MITF act: activators of MITF-driven TRPM1 promoter reporter, primary screen, cell-based, SK-MEL-5, luciferase, single point; activation, % at 12.5 µM; actives 0.75% (n = 300,000); SK-MEL-5 TRPM1-promoter luciferase, 24 h; % of positive control, neutral wells = 0;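 active means mean activation of at least 80% with every replicate also reaching 80%; inconclusive means mean reaches 80% but some replicate falls short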
MITF TRPM1 inh: inhibitors of MITF-dependent TRPM1 promoter reporter, primary screen, cell-based, SK-MEL-5, single point, luciferase; SK-MEL-5 TRPM1 promoter luciferase, 24 h; inhibition, % at 12.5 µM; actives 0.83% (n = 330,000); AID 488899, 2010;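 active means mean inhibition across replicates of 60% or more, whatever share of single replicates reaches that level; inconclusive means some that reach 60%, reason not given; inactive means mean inhibition across replicates below 60%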
UUG fidelity: yeast start codon fidelity modulation; AID 602363; activity score, % at 18.7 µM; S. cerevisiae UUG-firefly luciferase reporter, luminescence/redox ratio; 0.13% of 350,000 active;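 active means replicate mean at a twofold rise or more, about +100% in these data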;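 further: firefly luciferase made from a UUG start codon reports start codon fidelity; reporter light over untreated wells divided by growth signal over untreated wells; some hits fall short of that in this replicate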
Wnt act: Wnt/beta-catenin pathway activators, primary screen, cell-based, plate reader, single point. AID 743398, 2014. activation, % at 9.35 µM. actives 1.2% (n = 300,000). Wnt/beta-catenin reporter cell assay, activator; in the data active means activation above about 30%, passing the limit was not always enough; inconclusive means no clear call, values can overlap the other calls
PGC1a acetyl inh: inhibitors of PGC1a acetylation signal, primary screen, cell-based, U2OS, AlphaScreen, inhibitor mode | actives 0.17% (n = 350,000) | AlphaScreen anti-acetyl-lysine; with virally co-expressed GCN5 acetyltransferase | inhibition, % at 15.6 µM;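 active means every replicate shows inhibition of at least 40%; inconclusive means mean inhibition at least 40% but some replicate below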
miR122 inh: miR-122 Renilla sensor signal increase in Huh7, primary screen, miR-122 inhibitor project, cell-based, single point, plate reader; actives 0.3% (n = 340,000); activation (reporter increase), % at 12.5 µM; Huh7 miR-122 Renilla luciferase sensor, 48 h; neutral wells = 0, positive control = 100;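 active means mean replicate activation score at least 90 and every replicate individually at or above 90; inconclusive means only one of the two criteria met; inactive means neither criterion met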;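 further: higher luciferase means less miR-122 activity so hits act as miR-122 inhibitors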
Large screens that a line does not name were inactive; [ ] = another dose, or the depositor's remark. Compounds with a hit are over-represented: about 2.1% of the library has one in this group of screens.

Cc1ccc(CN2CCC(CNC(=O)Nc3ccccc3F)CC2)cc1	none
O=C(NC(=S)Nc1ccccc1N1CCCC1)c1cccs1	PGC1a acetyl inh 51 (no result: MITF act, miR122 inh)
O=C(Nc1ccccc1F)Nc1ccccc1N1CCCCC1	Wnt act 47 (no result: PGC1a acetyl inh)
O=C(NCC1CC1)Nc1ccccc1F	PGC1a acetyl inh 83
O=C(Nc1ccccc1N1CCCCC1)c1ccc(F)cc1	none (no result: Wnt act)
COc1ccc(NC(=O)Nc2ccc3c(c2)C(=O)N([C@H](C)CO)C[C@@H](C)[C@H](CN(C)C(=O)CCCN(C)C)OCCCC[C@@H](C)O3)cc1	none (no result: MITF act, MITF TRPM1 inh, Wnt act)
CCC(=O)N(C)C[C@H]1Oc2ncc(-c3ccccc3F)cc2C(=O)N([C@@H](C)CO)C[C@H]1C	none (no result: MITF act, MITF TRPM1 inh, Wnt act)
C[C@H]1CN([C@@H](C)CO)C(=O)c2cccc(NC(=O)C3CC3)c2O[C@@H]1CN(C)Cc1ccc(C(=O)O)cc1	none (no result: MITF act, MITF TRPM1 inh, Wnt act)
CN1C(=O)c2cc(NC(=O)c3cc(F)cc(F)c3)ccc2OC[C@H]2O[C@@H](CC(=O)O)CC[C@@H]21	none (no result: MITF act, MITF TRPM1 inh, Wnt act)
CCc1cc(C(=O)COc2ccc(F)cc2)c(O)cc1O	Wnt act 42 (no result: UUG fidelity, miR122 inh)
Cc1c(O)ccc(C(=O)COc2ccc(F)cc2)c1O	MITF act inconclusive (no result: Wnt act)
O=C1c2ccccc2C(=O)c2c1ccc(O)c2O	none
COC(=O)c1ccc2c(c1O)C(=O)c1ccccc1C2=O	MITF TRPM1 inh 97
COc1ccc(NC(=O)CSc2nccn2C)c([N+](=O)[O-])c1	none (no result: UUG fidelity, miR122 inh)
COc1ccc(NC(=O)CSc2nc(C)cs2)c([N+](=O)[O-])c1	Wnt act 46 (no result: PGC1a acetyl inh, miR122 inh)
COc1ccc(CNC(=O)CN2C(=O)C3C4C=CC(C4)C3C2=O)cc1 (stereo unspecified)	MITF TRPM1 inh 93 (no result: UUG fidelity, PGC1a acetyl inh, miR122 inh)
CCOc1cc(/C=C/C(=O)Nc2ccc(C(=O)NCCN(CC)CC)cc2)ccc1OCC(C)C	MITF TRPM1 inh 83 (no result: UUG fidelity, PGC1a acetyl inh, miR122 inh)
Cn1cnc(CCNC(=O)C[C@@H]2CC[C@H]3[C@@H](COC[C@@H](O)CN3C(=O)C3CC3)O2)c1	none (no result: MITF act, MITF TRPM1 inh, UUG fidelity, Wnt act)
Cc1ccc(S(=O)(=O)NC(=NCc2ccccc2)c2ccc(F)cc2)cc1	miR122 inh 116
COc1ccc(C)c2sc(N(CCN(C)C)C(=O)/C=C/c3cccs3)nc12	MITF TRPM1 inh 88
COc1ccc(OC)c2sc(N(CCN(C)C)C(=O)/C=C/c3cccs3)nc12	MITF TRPM1 inh 67 (no result: PGC1a acetyl inh, miR122 inh)
O=C(C[C@@H]1CC[C@H]2[C@@H](COC[C@H](O)CN2C(=O)C2CC2)O1)NCc1ccccc1Cl	none (no result: MITF act, MITF TRPM1 inh, Wnt act)
Nc1ccc(Oc2ncccn2)c(Cl)c1	none
Fc1ccc(Oc2ccnc(Cl)n2)c(Cl)c1	Wnt act 44 (no result: MITF act, MITF TRPM1 inh, UUG fidelity, PGC1a acetyl inh, miR122 inh)
CC1OC1c1ccc(-c2ccc(C3OC3C)cc2)cc1 (stereo unspecified)	MITF act 90 (no result: miR122 inh)
Cc1ccc(C2OCC3(CO2)COC(c2ccc(C)cc2)OC3)cc1 (stereo unspecified)	none (no result: UUG fidelity, PGC1a acetyl inh, miR122 inh)
Cc1ccc(S(=O)(=O)n2nc(C)c(Br)c2C)c(C)c1C	miR122 inh 105 (no result: UUG fidelity, Wnt act)
CCOC(=O)N1CCN(S(=O)(=O)c2ccc(C)c(C)c2C)CC1	none
C[C@H]1CN([C@@H](C)CO)C(=O)c2cccc(NC(=O)c3ccc(-c4nccs4)cc3)c2O[C@H]1CN(C)S(=O)(=O)c1ccc(F)cc1	none (no result: MITF act, MITF TRPM1 inh, Wnt act)
COCC(=O)N1C[C@H]2[C@@H](c3ccccc31)[C@@H](CO)N2Cc1ccccc1Cl	none (no result: MITF act, MITF TRPM1 inh, Wnt act)
CN(C)c1ccc(NC(=O)C(=O)C2C(=O)Nc3ccccc32)cc1 (stereo unspecified)	Wnt act 44
CC(C)(C)c1ccc(NC(=O)C(=O)C2C(=O)Nc3ccccc32)cc1 (stereo unspecified)	none (no result: UUG fidelity, PGC1a acetyl inh, miR122 inh)
COc1ccc(S(=O)(=O)Nc2ccc3c(c2)[C@@H]2C[C@@H](CC(=O)NCC4CC4)O[C@H](CO)[C@@H]2O3)cc1	none (no result: MITF act, MITF TRPM1 inh, UUG fidelity, Wnt act)
COc1ccc(S(=O)(=O)N(C)C[C@H]2Oc3ncc(/C=C/c4ccccc4)cc3C(=O)N([C@H](C)CO)C[C@@H]2C)cc1	none (no result: MITF act, MITF TRPM1 inh, UUG fidelity, Wnt act)
CCc1cccc(NC(=O)c2sc3nc4n(c(=O)c3c2C)CCC4)c1	MITF act 95 (no result: PGC1a acetyl inh, miR122 inh)
Cc1cc(C)cc(NC(=O)c2sc3nc4n(c(=O)c3c2C)CCC4)c1	none (no result: PGC1a acetyl inh, miR122 inh)
Nc1nnnn1/N=C/C(Br)=C/c1ccccc1	MITF TRPM1 inh 85
O=C(C[C@H]1C[C@H]2c3cc(NS(=O)(=O)c4ccc(F)cc4)ccc3O[C@H]2[C@@H](CO)O1)NCc1cc(F)ccc1F	none (no result: MITF act, MITF TRPM1 inh, Wnt act)
O=[N+]([O-])c1ccc(S(=O)(=O)c2cccc(C(F)(F)F)c2)nc1	MITF TRPM1 inh 83 (no result: MITF act, Wnt act)
N#C/C(=C(/O)CCl)c1nc2ccccc2[nH]1	MITF TRPM1 inh 80 (no result: UUG fidelity, miR122 inh)
COc1ccc2cc(CCNC(=O)c3cccs3)c(=O)[nH]c2c1	MITF act 90, Wnt act 51
COc1ccccc1N1C(=O)N(C(C)=O)C2C1Nc1ccccc1N2C (stereo unspecified)	MITF TRPM1 inh 69
COc1ccccc1N1C(=O)c2ccccc2NC1c1ccncc1 (stereo unspecified)	none
COc1ccc(NC(=O)NS(=O)(=O)c2ccc(C)cc2)cc1OC	Wnt act 32
Cc1ccc(S(=O)(=O)NC(=O)Nc2ccc(F)c(F)c2)cc1	none (no result: PGC1a acetyl inh, miR122 inh)
CN1c2ccc(-c3ccccc3F)cc2[C@H]2[C@H](CCN2C(=O)Nc2ccc(F)cc2)[C@H]1CO	none (no result: MITF act, MITF TRPM1 inh, Wnt act)
COc1cc(/C=N/NC(=O)c2ccc(O)cc2)ccc1OCC(=O)Nc1cccc([N+](=O)[O-])c1	PGC1a acetyl inh 52
Cc1ccc(S(=O)(=O)N(C)C[C@@H]2Oc3ccc(NC(=O)Nc4ccc5c(c4)OCO5)cc3CC(=O)N([C@@H](C)CO)C[C@@H]2C)cc1	miR122 inh 113[16.7 µM] (no result: MITF act, MITF TRPM1 inh, Wnt act)
C[C@H](CO)N1C[C@H](C)[C@H](CN(C)S(=O)(=O)c2ccc(Cl)cc2)Oc2ccc(NC(=O)Nc3ccc(C(F)(F)F)cc3)cc2CC1=O	miR122 inh 94[16.7 µM] (no result: MITF act, MITF TRPM1 inh, UUG fidelity, Wnt act)
CCNC(=O)C[C@@H]1CC[C@@H]2[C@H](COC[C@H](O)CN2C(=O)c2cccnc2)O1	none (no result: MITF act, MITF TRPM1 inh, Wnt act)
O=c1[nH]c(-c2ccccc2)cnc1-c1ccccc1	Wnt act 37 (no result: MITF act, MITF TRPM1 inh)
Cc1cccc(NC(=O)CSc2nc(C)c(CC(=O)c3ccc(Br)cc3)c(C)c2C#N)c1C	MITF TRPM1 inh 76
Cc1nc(SCC(=O)Nc2ccc(F)cc2)c(C#N)c(C)c1CC(=O)c1ccc(Br)cc1	MITF TRPM1 inh 65 (no result: UUG fidelity, Wnt act)
CCNC(=O)Nc1ccc2c(c1)C(=O)N(C)[C@H]1CC[C@H](CC(=O)Nc3ccccc3F)O[C@@H]1CO2	none (no result: MITF act, MITF TRPM1 inh, Wnt act)
C=CCNC(=O)c1cc2c(=O)n3ccccc3nc2s1	Wnt act 36 (no result: miR122 inh)
O=C(NC1CCCCCC1)c1cc2c(=O)n3ccccc3nc2s1	MITF act 91
